Results reported in US9532990B2 (Zhejiang DTRM Biopharma Co. Ltd., priority 2014, dated 2017).

Protein sequences, listed by entry. Tags and fused reporters are not part of them. Lines headed by an entry give the natural chain unless they say otherwise; changes in a name come on top.
UniProt Q06187: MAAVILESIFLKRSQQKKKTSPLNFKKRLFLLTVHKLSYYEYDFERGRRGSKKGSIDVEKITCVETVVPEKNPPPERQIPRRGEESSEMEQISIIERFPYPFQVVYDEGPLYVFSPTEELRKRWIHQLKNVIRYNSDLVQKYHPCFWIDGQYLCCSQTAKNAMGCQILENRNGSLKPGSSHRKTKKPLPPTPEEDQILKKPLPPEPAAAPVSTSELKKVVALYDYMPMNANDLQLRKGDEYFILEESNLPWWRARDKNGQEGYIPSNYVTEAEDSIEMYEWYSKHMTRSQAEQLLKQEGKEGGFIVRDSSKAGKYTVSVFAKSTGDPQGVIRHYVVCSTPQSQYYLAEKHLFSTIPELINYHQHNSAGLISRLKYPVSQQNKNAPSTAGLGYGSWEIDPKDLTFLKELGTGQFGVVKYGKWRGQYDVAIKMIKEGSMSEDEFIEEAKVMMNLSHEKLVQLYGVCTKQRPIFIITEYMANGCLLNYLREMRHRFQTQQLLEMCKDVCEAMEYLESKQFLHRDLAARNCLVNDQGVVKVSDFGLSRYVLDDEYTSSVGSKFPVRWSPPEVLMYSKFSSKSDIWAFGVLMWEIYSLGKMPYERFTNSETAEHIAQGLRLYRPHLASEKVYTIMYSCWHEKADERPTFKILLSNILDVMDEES

What follows are compounds tested against BTK wild type (Homo sapiens (Human), UniProt Q06187) (assay: Inhibition assay of BTK kinase activity (HTRF)). Settings: all compounds with IC50 of less 10 nM; read-out: IC50 (BTK).
Assay type: biochemical

Row | IC50 [nM] | Compound
1 | < 10 | C=CC(=O)N1CCC(n2nc(-c3ccc(Oc4c(F)c(F)cc(F)c4F)cc3F)c3c(N)ncnc32)C1 (stereo not shown) [Compound 23, 1-(3-(4-amino-3-(2-fluoro-4-(2,3,5,6-tetrafluorophenoxy)phenyl)-1H-pyrazolo[3,4-d]pyrimidin-1-yl)pyrrolidin-1-yl)prop-2-en-1-one]
2 | < 10 | C=CC(=O)N1CC[C@@H](n2nc(-c3ccc(Oc4c(F)c(F)cc(F)c4F)cc3F)c3c(N)ncnc32)C1 [Compound 45, 1-((R)-3-(4-amino-3-(2-fluoro-4-(2,3,5,6-tetrafluorophenoxy)phenyl)-1H-pyrazolo[3,4-d]pyrimidin-1-yl)pyrrolidin-1-yl)prop-2-en-1-one]
3 | < 10 | [2H]/C=C/C(=O)N1CC[C@@H](n2nc(-c3ccc(Oc4c(F)c(F)cc(F)c4F)cc3F)c3c(N)ncnc32)C1 [Compound 120, (E)-1-((R)-3-(4-amino-3-(2-fluoro-4-(2,3,5,6-tetrafluorophenoxy)phenyl)-1H-pyrrolo[2,3-d]pyrimidin-1-yl)pyrrolidin-1-yl)-3-deuterium-prop-2-en-1-one]
4 | < 10 | [2H]/C=C\C(=O)N1CC[C@@H](n2nc(-c3ccc(Oc4c(F)c(F)cc(F)c4F)cc3F)c3c(N)ncnc32)C1 [Compound 121, (Z)-1-((R)-3-(4-amino-3-(2-fluoro-4-(2,3,5,6-tetrafluorophenoxy)phenyl)-1H-pyrrolo[2,3-d]pyrimidin-1-yl)pyrrolidin-1-yl)-3-deuterium-prop-2-en-1-one]

Row | Compound | IC50 [nM]
5 | C=CC(=O)N1CC[C@@H](n2nc(-c3ccc(C(=O)c4cccc(F)c4)cc3F)c3c(N)ncnc32)C1 [Compound 73, 1-((R)-3-(4-amino-3-(2-fluoro-4-(3-fluorobenzoyl)phenyl)-1H-pyrazolo[3,4-d]pyrimidin-1-yl)pyrrolidin-1-yl)prop-2-en-1-one] | < 10

Same assay, conditions: read-out: BTK IC50

Row | Compound | IC50 [nM]
6 | C=CC(=O)N1CCCC(n2nc(-c3ccc(C(=O)c4cccc(F)c4)cc3F)c3c(N)ncnc32)C1 (stereo not shown) [Compound 5, 1-(3-(4-amino-3-(2-fluoro-4-(3-fluorobenzoyl)phenyl)-1H-pyrazolo[3,4-d]pyrimidin-1-yl)piperidin-1-yl)prop-2-en-1-one] | 2
7 | Nc1ncnc2c1c(-c1ccc(Oc3c(F)c(F)cc(F)c3F)cc1F)nn2C1CCC(N2C(=O)C=CC2=O)CC1 (stereo not shown) [Compound 35, 1-(4-(4-amino-3-(2-fluoro-4-(2,3,5,6-tetrafluorophenoxy)phenyl)-1H-pyrazolo[3,4-d]pyrimidin-1-yl)cyclohexyl)-1H-pyrrole-2,5-dione] | 81
8 | C=CC(=O)N1CC[C@H](n2nc(-c3ccc(Oc4c(F)c(F)cc(F)c4F)cc3F)c3c(N)ncnc32)C1 [Compound 46, 1-((S)-3-(4-amino-3-(2-fluoro-4-(2,3,5,6-tetrafluorophenoxy)phenyl)-1H-pyrazolo[3,4-d]pyrimidin-1-yl)pyrrolidin-1-yl)prop-2-en-1-one] | 21
9 | CNC(=N)N1CCCC(n2nc(-c3ccc(Oc4c(F)c(F)cc(F)c4F)cc3F)c3c(N)ncnc32)C1 (stereo not shown) [Compound 53, 3-[4-amino-3-[2-fluoro-4-(2,3,5,6-fluorophenoxy)phenyl]-1H-pyrazolo[3,4-d]pyrimidine-1-yl]piperidine-1-carboxamidine] | 1650
10 | C=CC(=O)N1CC[C@@H](n2nc(-c3ccc(C(=O)c4ccc(F)cc4)cc3F)c3c(N)ncnc32)C1 [Compound 71, 1-((R)-3-(4-amino-3-(2-fluoro-4-(4-fluorobenzoyl)phenyl)-1H-pyrazolo[3,4-d]pyrimidin-1-yl)pyrrolidin-1-yl)prop-2-en-1-one] | 6
